Here are results for 15 molecules from patent publication US9266870B2 (TAISHO PHARMACEUTICAL CO., LTD., priority 2012, dated 2016).

Chains of the proteins cited; added tags and fusions are not shown.
UniProt O43613, whole entry: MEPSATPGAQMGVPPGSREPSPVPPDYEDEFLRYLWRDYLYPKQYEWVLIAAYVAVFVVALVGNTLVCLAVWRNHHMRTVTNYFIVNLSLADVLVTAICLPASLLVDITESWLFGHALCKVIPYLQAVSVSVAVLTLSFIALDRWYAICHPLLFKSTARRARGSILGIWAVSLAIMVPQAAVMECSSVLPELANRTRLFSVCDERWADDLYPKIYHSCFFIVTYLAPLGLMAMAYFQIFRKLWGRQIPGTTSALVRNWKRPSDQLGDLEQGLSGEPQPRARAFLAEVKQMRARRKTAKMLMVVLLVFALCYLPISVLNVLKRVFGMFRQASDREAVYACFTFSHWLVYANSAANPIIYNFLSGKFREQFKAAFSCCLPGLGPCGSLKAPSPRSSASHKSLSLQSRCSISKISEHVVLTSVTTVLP
UniProt O43614, whole entry: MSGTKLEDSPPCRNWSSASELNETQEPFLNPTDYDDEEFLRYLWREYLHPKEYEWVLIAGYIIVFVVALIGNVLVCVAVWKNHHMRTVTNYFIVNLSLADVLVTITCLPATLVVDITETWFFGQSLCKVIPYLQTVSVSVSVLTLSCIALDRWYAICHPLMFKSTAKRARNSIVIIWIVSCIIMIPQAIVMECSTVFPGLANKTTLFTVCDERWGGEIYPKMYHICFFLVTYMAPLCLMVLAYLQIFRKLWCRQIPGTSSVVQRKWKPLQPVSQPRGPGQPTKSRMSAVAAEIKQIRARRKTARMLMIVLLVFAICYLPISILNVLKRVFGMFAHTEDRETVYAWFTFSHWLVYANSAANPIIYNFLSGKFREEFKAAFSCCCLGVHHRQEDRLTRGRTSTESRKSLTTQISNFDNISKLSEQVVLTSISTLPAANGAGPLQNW

Molecules are shown by their SMILES.

As usually defined, the IC50 is the concentration at which inhibition is half-maximal.

The first test addresses human orexin-1 receptor (hOX1R) (Homo sapiens (Human), UniProt O43613). In words: Measurement of orexin antagonistic activity (intracellular Ca2+ fluorescence, FDSS), hOX1R. The settings on record: CHO cells forcibly expressing hOX1R; ligand peptide (modified human orexin-A) 300 pM; maximum fluorescence intensity; read-out: IC50 Value OX1. The test is classed as cell-based. As for the experimental part:
(§1) Chinese hamster ovary (CHO) cells forcibly expressing the hOX1R and hOX2R were seeded into a 96 well Black clear bottom plate (Nunc) at 20,000 cells per well, which were cultured in Ham's F-12 medium containing 0.1 mM MEM non-essential amino acids, 0.5 mg/ml G418, 10% fetal bovine serum (all by Invitrogen) for 16 hours under the conditions of 37° C., 5% CO2. After removing the medium, 100 μL of 0.5 μM Fluo-4AM ester (Dojin) in an assay buffer (25 mM HEPES (Dojin), Hank's balanced salt solution (Invitrogen), 0.1% bovine serum albumin, 2.5 mM probenecid, 200 μg/ml Amaranth (all by Sigma-Aldrich), pH 7.4) was added and the cells were incubated for 60 minutes at 37° C., 5% CO2. After removing the assay buffer containing fluo-3AM ester, the test compound was dissolved in dimethyl sulfoxide to be 10 mM and diluted with the assay buffer, 150 μL of which was added and incubated for 30 minutes.
(§2) The reaction was measured for the fluorescence intensity of each well every second for 3 minutes using Functional Drug Screening System (FDSS; Hamamatsu Photonics K.K.), and the antagonistic activity was determined using the maximum fluorescence intensity as the indicator of intracellular Ca2+ concentration.
In the case of `Cc1ccc(-c2ncccn2)c(C(=O)N2CCOC2Cn2ccc(-c3ccc(F)cn3)n2)c1` (racemic) [Example 14, (±)-2-[[3-(5-fluoropyridin-2-yl)-1H-pyrazol-1-yl]methyl)-1,3-oxazolidin-3-yl] [5-methyl-2-(pyrimidin-2-yl)phenyl]methanone], the concentration for half-maximal inhibition (IC50) is 9.7 nM.

`O=C(c1ccccc1-c1ncccn1)N1CCOC1Cn1ccc(-c2ccc(F)cn2)n1` (racemic) [Example 15, (±)-(2-[[3-(5-fluoropyridin-2-yl)-1H-pyrazol-1-yl]methyl]-1,3-oxazolidin-3-yl) [2-(pyrimidin-2-yl)phenyl] methanone]: the IC50 turned out to be 16.9 nM.

For the molecule `Cc1ccc(-c2ncccn2)c(C(=O)N2CCOC2Cn2cc(-c3ccc(F)cc3)cn2)c1` (racemic) [Example 24, (±)-(2-[[4-(4-fluorophenyl)-1H-pyrazol-1-yl]methyl]-1,3-oxazolidin-3-yl)[5-methyl-2-(pyrimidin-2-yl)phenyl]methanone], the half-inhibitory concentration (IC50) is 34.6 nM.

With `O=C(c1cc(F)ccc1-c1ncccn1)N1CCOC1Cn1cc(-c2ccc(F)cc2)cn1` (racemic) [Example 25, (±)-(2-[[4-(4-fluorophenyl)-1H-pyrazol-1-yl]methyl]-1,3-oxazolidin-3-yl)[5-fluoro-2-(pyrimidin-2-yl)phenyl] methanone], the 50% inhibitory concentration (IC50) is 98.6 nM.

For a further test, the target named is human orexin-2 receptor (hOX2R) (Homo sapiens (Human), UniProt O43614). In words: Measurement of orexin antagonistic activity (intracellular Ca2+ fluorescence, FDSS), hOX2R. The note with it: CHO cells forcibly expressing hOX2R; ligand peptide (modified human orexin-A) 3 nM; maximum fluorescence intensity; read-out: IC50 Value OX2. Format: cell-based. On the procedure:
as §1, with “The antagonistic activities of the test compounds on human orexin-1 receptor (hOX1R) and orexin-2 receptor (hOX2R) were measured by modifying from the method described in literature (Toshikatsu Okumura et al., Biochemical and Biophysical Research Communications 280, 976-981, 2001). Chinese” for “Chinese”
as §2
For the molecule `Cc1ccc(-c2ncccn2)c(C(=O)N2CCOC2Cn2ccc(-c3ccc(F)cn3)n2)c1` (racemic) [Example 14, (±)-2-[[3-(5-fluoropyridin-2-yl)-1H-pyrazol-1-yl]methyl)-1,3-oxazolidin-3-yl] [5-methyl-2-(pyrimidin-2-yl)phenyl]methanone], the half-maximal inhibitory concentration (IC50) was 9.5 nM.

Regarding `O=C(c1ccccc1-c1ncccn1)N1CCOC1Cn1ccc(-c2ccc(F)cn2)n1` (racemic) [Example 15, (±)-(2-[[3-(5-fluoropyridin-2-yl)-1H-pyrazol-1-yl]methyl]-1,3-oxazolidin-3-yl) [2-(pyrimidin-2-yl)phenyl] methanone], the half-maximal inhibitory concentration (IC50) is 225 nM.

Take `O=C(c1cc(F)ccc1-c1ncccn1)N1CCOC1Cn1cc(-c2ccc(F)cc2)cn1` (racemic) [Example 25, (±)-(2-[[4-(4-fluorophenyl)-1H-pyrazol-1-yl]methyl]-1,3-oxazolidin-3-yl)[5-fluoro-2-(pyrimidin-2-yl)phenyl] methanone]: the IC50 came out at 107 nM.

Consider `Cc1ccc(-n2nccn2)c(C(=O)N2CCOC2Cn2ccc(-c3ccc(F)cn3)n2)c1` (single isomer, unassigned; (-)) [Example 1, (−)-(2-{[3-(5-Fluoropyridin-2-yl)-1H-pyrazol-1-yl]methyl}-1,3-oxazolidin-3-yl)[5-methyl-2-(2H-1,2,3-triazol-2-yl)phenyl]methanone], for which the IC50 came out at 18.5 nM.

With `Cc1ccc(-n2nccn2)c(C(=O)N2CCCOC2Cn2cc(-c3ccc(F)cn3)cn2)c1` (single isomer, unassigned; (-)) [Example 4, (−)-(2-[[4-(5-fluoropyridin-2-yl)-1H-pyrazol-1-yl]-methyl]-1,3-oxazinan-3-yl)[5-methyl-2-(2H-1,2,3-triazol-2-yl)phenyl] methanone], the IC50 was found to be 3.2 nM.

In the case of `Cc1ccc(-n2nccn2)c(C(=O)N2CC(C)COC2Cn2cc(-c3ccc(F)cn3)cn2)c1` (single isomer, unassigned; (-)) [Example 40, (−)-[(2S*,5S*)-2-{[4-(5-Fluoropyridin-2-yl)-1H-pyrazol-1-yl]methyl}-5-methyl-1,3-oxazinan-3-yl][5-methyl-2-(2H-1,2,3-triazol-2-yl)phenyl]methanone], the IC50 was found to be 1.4 nM.

On to `Cc1ccc(-c2ncccn2)c(C(=O)N2CCCOC2Cn2cc(-c3ccc(F)cc3)cn2)c1` (single isomer, unassigned; (-)) [Example 43, (−)-[2-[[4-(4-fluorophenyl)-1H-pyrazol-1-yl]methyl]-1,3-oxazinan-3-yl][5-methyl-2-(pyrimidin-2-yl)phenyl]methanone], for which the half-inhibitory concentration (IC50) came out at 3.2 nM.

For `O=C(c1cc(F)ccc1-c1ncccn1)N1CCCOC1Cc1cnn(-c2ccc(F)cn2)c1` (single isomer, unassigned; (-)) [Example 44, (−)-[2-[[1-(5-fluoropyridin-2-yl)-1H-pyrazol-4-yl]methyl]-1,3-oxazinan-3-yl] [5-fluoro-2-(pyrimidin-2-yl)phenyl]methanone], the 50% inhibitory concentration (IC50) amounted to 51.8 nM.

Regarding `Cc1ccc(-n2nccn2)c(C(=O)N2CCCOC2Cc2cnn(-c3ccc(F)cn3)c2)c1` (single isomer, unassigned; (-)) [Example 47, (−)-[2-{[1-(5-Fluoropyridin-2-yl)-1H-pyrazol-4-yl]methyl}-1,3-oxazinan-3-yl][5-methyl-2-(2H-1,2,3-triazol-2-yl)phenyl]methanone], the 50% inhibitory concentration (IC50) was determined as 3.6 nM.

Regarding `Cc1ccc(-n2nccn2)c(C(=O)N2CC(C)COC2Cn2cc(-c3ccc(F)cn3)cn2)c1` (single isomer, unassigned; (-)) [Example 49, (−)-[(2S*,5R*)-2-{[4-(5-Fluoropyridin-2-yl)-1H-pyrazol-1-yl]methyl}-5-methyl-1,3-oxazinan-3-yl][5-methyl-2-(2H-1,2,3-triazol-2-yl)phenyl]methanone], the half-inhibitory concentration (IC50) worked out at 7.7 nM.

Regarding `Cc1ccc(-n2nccn2)c(C(=O)N2C[C@H](C)O[C@H]2Cn2cc(-c3ccc(F)cn3)cn2)c1` [Example 5, (−)-[(2S,5S)-2-{[4-(5-Fluoropyridin-2-yl)-1H-pyrazol-1-yl]methyl}-5-methyl-1,3-oxazolidin-3-yl][5-methyl-2-(2H-1,2,3-triazol-2-yl)phenyl]methanone], the half-inhibitory concentration (IC50) is 11.5 nM.

On to `Cc1ccc(-n2nccn2)c(C(=O)N2C[C@@H](C)O[C@H]2Cn2cc(-c3ccc(F)cn3)cn2)c1` [Example 6, (−)-[(2S,5R)-2-[[4-(5-fluoropyridin-2-yl)-1H-pyrazol-1-yl]methyl]-5-methyl-1,3-oxazolidin-3-yl] [5-methyl-2-(2H-1,2,3-triazol-2-yl)phenyl] methanone], for which the IC50 is 9.8 nM.

As for `Cc1ccc(-n2nccn2)c(C(=O)N2[C@H](C)CO[C@H]2Cn2ccc(-c3ccc(F)cn3)n2)c1` [Example 7, [(2S,4R)-2-[[3-(5-fluoropyridin-2-yl)-1H-pyrazol-1-yl]-methyl]-4-methyl-1,3-oxazolidin-3-yl] [5-methyl-2-(2H-1,2,3-triazol-2-yl)phenyl] methanone], the IC50 is 54.9 nM.

With `Cc1ccc(-n2nccn2)c(C(=O)N2[C@H](Cn3ccc(-c4ccc(F)cn4)n3)OC[C@@H]2C)c1` [Example 9, (−)-[(2S,4S)-2-[[3-(5-fluoropyridin-2-yl)-1H-pyrazol-1-yl]-methyl]-4-methyl-1,3-oxazolidin-3-yl] [5-methyl-2-(2H-1,2,3-triazol-2-yl)phenyl] methanone], the IC50 was 41.5 nM.
